These results are taken from article PMC5355811 (Nature Communications, 2017).

“And” between values parts separate entries of the source, which are not always exact repeats. Equal values may be shown once.

For assay [1], the system named is Ba/F3 cells of EGFR-T790M/del19. Put plainly: Drug sensitivity screening at 100 nM, Ba/F3 EGFR-T790M/del19. It is filed as cell-based. The conditions noted are these: 0.1 µM. On the procedure: (§1) After the incubation, cell viability was measured using CellTiter-Glo assay. The relative cell viability was calculated as a ratio of each value to that of the DMSO control.

In assay [2] the test system is Ba/F3 cells of EGFR-del19. Description: Drug sensitivity screening at 100 nM, Ba/F3 EGFR-del19. The class given is cell-based. The conditions noted are these: 0.1 µM. On the procedure:
as §1

On to `C[C@]12O[C@H](C[C@]1(O)CO)n1c3ccccc3c3c4c(c5c6ccccc6n2c5c31)CNC4=O` [CEP701], for which, in assay [1], the “Relative cell viability (% of DMSO control)” value is 8.811 and 6.835 and 8.335.

Take `CS(=O)(=O)CCNCc1ccc(-c2ccc3ncnc(Nc4ccc(OCc5cccc(F)c5)c(Cl)c4)c3c2)o1` [Lapatinib, lapatinib]: in assay [2], the “Relative cell viability (% of DMSO control) in del19 Ba/F3 cells” value was 138.183 and 130.036 and 116.359.
